Ab-95 light chain CDR variants: yeast mating affinities

Target: peptide PDVDLGDISGINAS, taken from heptad repeat 2 (HR2) of SARS-CoV-2 spike.

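Phage display of a naive human antibody library on the peptide gave the parent. AAYL52 was designed without a model: most single CDR substitutions and a random sample of double and triple ones. AlphaSeq pools MATa yeast showing the antibodies with MATalpha yeast showing the peptide. Pairs that bind mate more often; barcode pairs of the diploids are counted by sequencing. The ratio of observed to expected reads was calibrated, replicate by replicate, on BCL2-family standards whose Kd was known from biolayer interferometry. There are three technical replicates.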

Ab-95 is the parent antibody, in scFv form: VH, then a (GGGGS)3 linker, then VL. The heavy chain is unchanged in all variants.
VH: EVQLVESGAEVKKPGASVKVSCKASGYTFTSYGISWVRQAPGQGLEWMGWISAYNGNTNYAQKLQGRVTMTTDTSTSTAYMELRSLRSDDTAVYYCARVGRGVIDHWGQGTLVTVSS
VL: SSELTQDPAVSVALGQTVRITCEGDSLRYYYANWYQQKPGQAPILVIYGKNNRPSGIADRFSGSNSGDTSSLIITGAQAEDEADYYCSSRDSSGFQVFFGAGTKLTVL

Positions count from residue 1 of the parent VL; E23I puts I in place of E. All variants listed here change F95 of the VL, counted from its first residue. The Kd shown is the geometric mean over detected replicates; a lower Kd is a better binder. An entry "no signal" has no value in the source: the pair was not observed among the diploids in any replicate. This suggests poor binding but is not conclusive.

With E23I+S89H+F95R the result was 19 µM (1 of 3 replicates).
With K50P+F95M the result was 160 nM (3 of 3 replicates).
With N33I+G49Y+F95E the result was no signal (0 of 3 replicates).
With D25T+S55R+F95I the result was 2.8 µM (3 of 3 replicates).
With N52V+R53P+F95Y the result was 6.4 µM (3 of 3 replicates).
With L27A+N51K+F95C the result was no signal (0 of 3 replicates).
With Y29G+F95M+F98L the result was 100 nM (3 of 3 replicates).
With R53G+F95W+Q96C the result was 180 µM (2 of 3 replicates).
With Y30W+F95R+Q96V the result was 12 µM (3 of 3 replicates).
With A32V+K50R+F95T the result was 240 nM (3 of 3 replicates).
With R53A+S89M+F95A the result was 4.4 µM (1 of 3 replicates).
With E23G+S89E+F95E the result was 250 nM (3 of 3 replicates).
With N52K+F95S+Q96W the result was 54 µM (2 of 3 replicates).
With R53Y+G94F+F95H the result was 9.1 µM (1 of 3 replicates).
With Y29W+Y30V+F95Y the result was 53 nM (3 of 3 replicates).
With S55V+S93I+F95R the result was 380 nM (3 of 3 replicates).
With Y31A+F95M+V97W the result was 19 nM (3 of 3 replicates).
With R90A+F95I the result was 340 nM (3 of 3 replicates).
With A32F+R90C+F95Y the result was no signal (0 of 3 replicates).
With D25Q+F95D+F98P the result was 770 nM (2 of 3 replicates).
With A32W+G94H+F95V the result was no signal (0 of 3 replicates).
With G24Q+S92N+F95G the result was 62 µM (1 of 3 replicates).
With D25T+N51G+F95P the result was 560 nM (3 of 3 replicates).
With N52C+F95I the result was 1.8 µM (3 of 3 replicates).
With K50W+S93F+F95N the result was 5.6 µM (2 of 3 replicates).
With S26N+F95R+V97R the result was 2.4 µM (1 of 3 replicates).
With S89Q+S93R+F95W the result was 8.2 µM (2 of 3 replicates).
With L27H+R90V+F95W the result was 35 µM (1 of 3 replicates).
With L27C+S92Y+F95Y the result was 5.9 µM (2 of 3 replicates).
With K50R+F95Y+F98A the result was 360 nM (3 of 3 replicates).
With S89D+F95V the result was 230 nM (3 of 3 replicates).

4 of these entries, quoted again:

The variant D25T+N51G+F95P gave 560 nM (3 of 3 replicates).
The variant D25Q+F95D+F98P gave 770 nM (2 of 3 replicates).
The variant L27C+S92Y+F95Y gave 5.9 µM (2 of 3 replicates).
The variant Y29G+F95M+F98L gave 100 nM (3 of 3 replicates).

Three control strains display no target. For library AAYL52, 28% of the pairings with them gave a signal, with a median of 8.2 µM and one signal in twenty below 800 nM, so weak values seen in few replicates may be background. For reference, the parent read 200 nM as the reference entry and 180 nM as a member of this library.

The measurements come from Engelhart et al. 2022 (doi:10.1038/s41597-022-01779-4) through the FLAb antibody collection.